Experimental findings from US7001983B1, “Antipathogenic synthetic peptides and compositions comprising them” (priority 1997, dated 2006) are described below.

The nature of this data set: CD spectroscopy, α-helix content. Format: physicochemical. The conditions noted are these: CD in PBS. On the procedure:
(vii) CD Spectroscopy. The CD spectra of the peptides were measured with a Jasco J-500A spectropolarimeter after calibrating the instrument with (+)-10-camphorsulfonic acid. The spectra were scanned at 23° C. in a capped, quartz optical cell with a 0.5 mm path length. Spectra were obtained at wavelengths of 250 to 190 nm. Eight scans were taken for each peptide at a scan rate of 20 nm/min. […] Fractional helicities (Greenfield and Fasman, 1969; Wu et al., 1981) were calculated as follows: [formula] where [θ]222 is the experimentally-observed mean residue ellipticity at 222 nm, and the values for [θ]^0222 and [θ]^100222, which correspond to 0% and 100% helix content at 222 nm, are estimated to be 2000 and 32000 deg·cm^2/dmole,
1.2 Determination of the secondary structure of the peptides.

As for Pardaxin, the α-helix content is about 12%.
